This assay concerns the target T1, His-tagged Ku70 (UniProt P12956 1-609).
T1 sequence: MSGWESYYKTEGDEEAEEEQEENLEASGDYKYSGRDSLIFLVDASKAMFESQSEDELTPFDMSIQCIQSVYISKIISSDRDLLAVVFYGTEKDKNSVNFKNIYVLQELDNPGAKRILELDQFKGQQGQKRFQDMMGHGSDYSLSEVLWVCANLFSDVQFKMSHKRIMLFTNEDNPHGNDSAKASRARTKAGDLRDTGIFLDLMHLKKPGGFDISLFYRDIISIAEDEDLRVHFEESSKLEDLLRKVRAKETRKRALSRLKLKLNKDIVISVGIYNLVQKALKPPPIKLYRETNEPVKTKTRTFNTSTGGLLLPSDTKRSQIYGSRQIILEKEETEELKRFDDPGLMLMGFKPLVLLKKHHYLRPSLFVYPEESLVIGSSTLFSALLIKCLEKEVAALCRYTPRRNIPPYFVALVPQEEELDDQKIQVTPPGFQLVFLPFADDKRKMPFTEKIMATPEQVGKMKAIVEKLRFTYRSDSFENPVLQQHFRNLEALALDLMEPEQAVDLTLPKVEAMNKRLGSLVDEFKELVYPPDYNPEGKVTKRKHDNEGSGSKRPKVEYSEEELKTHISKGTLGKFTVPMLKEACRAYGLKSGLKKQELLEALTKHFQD
Briefly: pull-down.

B1: GST-SMYD2 (enzyme)
chain: MRAEGLGGLERFCSPGKGRGLRALQPFQVGDLLFSCPAYAYVLTVNERGNHCEYCFTRKEGLSKCGRCKQAFYCNVECQKEDWPMHKLECSPMVVFGENWNPSETVRLTARILAKQKIHPERTPSEKLLAVKEFESHLDKLDNEKKDLIQSDIAALHHFYSKHLGFPDNDSLVVLFAQVNCNGFTIEDEELSHLGSAIFPDVALMNHSCCPNVIVTYKGTLAEVRAVQEIKPGEEVFTSYIDLLYPTEDRNDRLRDSYFFTCECQECTTKDKDKAKVEIRKLSDPPKAEAIRDMVRYARNVIEEFRRAKHYKSPSELLEICELSQEKMSSVFEDSNVYMLHMMYQAMGVCLYMQDWEGALQYGQKIIKPYSKHYPLYSLNVASMWLKLGRLYMGLEHKAAGEKALKKAIAIMEVAHGKDHPYISEIKQEIESH
As to B1, the binding result is “binds”.

These data come from PMC10266737 (Science Advances, 2023).
